System: NC(=O)OC[C@@H]1[C@H](NC(=O)/C(=N\OCC(=O)O)c2csc(N)n2)C(=O)N1S(=O)(=O)O
Assay: purified protein, by the assay type
Conditions: other: hydrolysis by purified KPC-2, 50 mM sodium phosphate pH 7.0, 0.1 mg/ml BSA, 37° C., OD 318 nm

## purified KPC-2 β-lactamase (Klebsiella pneumoniae)
  Km: 602.7 µM
  Vmax: 20.3 µM/min
  kcat: 0.9 s⁻¹
  kcat/Km: 1500 M⁻¹ s⁻¹

Source: patent US20140128364A1, “THERAPEUTIC USES OF TIGEMONAM AND CARUMONAM” (priority 2012, published 2014)
